# Screening data (PubChem)
# In the library only some 0.43% were active in any assay of this set; here they are far more common.
# GIV-Gai inh = blocks GIV peptide binding to rat Galpha-i3. P08753. Galpha-i3/FITC-GIV peptide fluorescence polarization, 90 min; stronger effect = lower value; scaled: aluminum fluoride 0%, vehicle 100%. percent of control (FP), % (test concentration not listed). 0.42% of 210,000 active. AID 1224905;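 active = replicate mean at 85% of control or lower, very high polarization wells dropped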;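 note: wells of about 15 µL received 100 nL stock; the first replicate is given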
# HCMV NEC inh = inhibitors of HCMV UL50-UL53 nuclear egress complex interaction; HTRF UL50-UL53 interaction, normalized percent inhibition; AID 1918969; inhibition, % (test concentration not listed); 190,000 tested, 0.15% active; in the data active = inhibition above about 27%, passing the limit was not always enough
# The depositor's hits bear a star; x = no result.
1	COCCCN1C(=O)/C(=C/c2c(N3CCN(C)CC3)nc3c(C)cccn3c2=O)SC1=S
2	CCCN1C(=O)/C(=C/c2c(N3CCCC3)nc3ccccn3c2=O)SC1=S
3	CC(=O)NC1C(N=C(N)N)C=C(C(=O)O)O[C@H]1C(O)C(O)CO (stereo partly drawn)
4	COC(=O)c1sccc1NC(=O)c1cc(S(=O)(=O)C(C)C)c(SC)s1
5	CCC12CN3CC(CC)(CN(C1)C3c1cccc(C)c1)C2=O (stereo not drawn)
6	Cc1cnc2c(c1)C(=Nc1ccccc1)c1ccccc1-2

Assay by compound,1,2,3,4,5,6
GIV-Gai inh,62*,-60*,x,94,108,x
HCMV NEC inh,-45,-36,-16,-10,x,-42

7	Cc1ccc(N/C(=N/C(N)=S)c2ccccc2)cc1
8	CCN(CC)c1nc(OCC(F)(F)F)nc(N(c2ccccc2)c2ccccc2)n1
9	CCN1C(=O)/C(=C/c2c(N3CCCCC3)nc3ccccn3c2=O)SC1=S
10	CN1CCN(c2nc3ccccn3c(=O)c2/C=C2\SC(=S)N(Cc3ccco3)C2=O)CC1
11	CCSc1nnc(-c2nn(C)c3c2CN(S(=O)(=O)c2ccccc2Cl)CC3)n1CC
12	CC(=O)NCCCc1[nH]n(-c2ccccc2)c(=O)c1NC(=O)c1ccccc1

Assay by compound,7,8,9,10,11,12
GIV-Gai inh,102,99,-75*,162,104,x
HCMV NEC inh,x,-1,2,-11,x,65*

13	CCCc1[nH]n(-c2ccccc2)c(=O)c1C(C)=NCCOC
14	N#CC1=C(N)SC(N)=C(C#N)C1c1cccc2ccccc12
15	N#CC1=C(N)SC(N)=C(C#N)C1c1ccccc1F
16	CC(C)C1C(C#N)=C(N)SC(N)=C1C#N
17	Cc1ccc(C2C(C#N)=C(N)SC(N)=C2C#N)c(C)c1
18	O=C1NC2NC(=O)N(C3CCCCC3)C2N1 (stereo not drawn)

Assay by compound,13,14,15,16,17,18
GIV-Gai inh,107,-36*,x,121,8.5*,111
HCMV NEC inh,2,-48,-20,-15,-25,x

# Next section; the last 2 above are carried over.
17	Cc1ccc(C2C(C#N)=C(N)SC(N)=C2C#N)c(C)c1
18	O=C1NC2NC(=O)N(C3CCCCC3)C2N1 (stereo not drawn)
19	Cc1cc(/C(O)=C2\C(=O)C(=O)N(CCN(C)C)C2c2ccncc2)ccc1OCC(C)C (stereo not drawn)
20	COC(=O)Nc1nc2cc3c(cc2s1)OCCO3
21	O=C(O)COc1ccc2c(c1)C(=NO)c1cc(OCC(=O)O)ccc1-2
22	O=C(O)COc1ccc2c(c1)C(=O)c1cc(OCC(=O)O)ccc1-2
23	CCCN1CC(CSC)C[C@@H]2c3cccc4[nH]cc(c34)C[C@H]21 (stereo partly drawn)
24	O=C1/C(=C/C2CC=CCC2)SC(=S)N1CC1CCCO1 (stereo not drawn)

Assay by compound,17,18,19,20,21,22,23,24
GIV-Gai inh,8.5*,111,102,103,106,84*,x,100
HCMV NEC inh,-25,x,-31,-3,x,-57,50*,x

25	O=C1/C(=C/c2ccc(O)cc2)SC(=S)N1CC1CCCO1 (stereo not drawn)
26	O=C(Cc1ccccc1)N1CCN(c2nc3cccnc3o2)CC1
27	COc1cc(NC(=O)c2cccc(-c3cc(Oc4ccccc4OC)ncn3)c2)cc(OC)c1
28	COc1ccc(-c2cc(-c3ccccc3O)nc(NC(N)=S)n2)cc1
29	NNc1nc(-c2ccccc2)cc(-c2ccccc2O)n1
30	CC(C)c1nc(Cn2cnc3ccsc3c2=O)cs1

Assay by compound,25,26,27,28,29,30
GIV-Gai inh,-24*,100,103,x,103,x
HCMV NEC inh,x,-4,x,51*,x,-15

31	CN(C)S(=O)(=O)c1cccc(COC(=O)c2n[nH]c3ccccc23)c1
32	COc1ccccc1NC(=O)Cc1noc(COC(=O)c2ccc(Br)o2)n1
33	O=C(COC(=O)c1ccc2c(c1)OCO2)Nc1ccc(S(=O)(=O)N2CCCC2)cc1
34	CCCCCCc1cc2cc(-c3nnc(-c4ccc(C)cc4)o3)c(=O)oc2cc1O
35	CCCCCCc1cc2cc(-c3csc(Nc4ccc(Cl)cc4Cl)n3)c(=O)oc2cc1O
36	CN1C(=O)c2cccc(NC(=O)CSc3ccc(F)cc3)c2C1=O

Assay by compound,31,32,33,34,35,36
GIV-Gai inh,x,x,x,7.6*,196,101
HCMV NEC inh,-18,10,-20,3,-23,-35

37	CCNc1cccc2c1C(=O)N(C)C2=O
38	Cc1ccccc1C(=O)N1CCN(Cc2cc(=O)n3nc(-c4ccccc4)sc3n2)CC1
39	CCO/C=C1/C(=O)N(Cc2ccc(OC)cc2)C(=O)c2ccccc21
40	CCO/C=C1/C(=O)N(c2ccc(Cl)cn2)C(=O)c2ccccc21
41	CCO/C=C1/C(=O)NC(=O)c2ccccc21
42	CCOc1ccc(/C=C2/C(=O)Nc3ccccc32)cc1

Assay by compound,37,38,39,40,41,42
GIV-Gai inh,6.2*,109,x,x,x,x
HCMV NEC inh,-68,x,57*,-22,98*,10

43	CCO/C=C1\C(=O)N(C)C(=O)c2ccccc21
44	O=C1c2ccccc2C(=O)N1Cc1ccccc1
45	COc1cc(OC)cc(-c2cc3cnc(N)nc3nc2NC(=O)NC(C)(C)C)c1
46	O=C(NCCN1CCOCC1)c1cnc2sc3c(n2c1=O)CCCCC3
47	CCC(=O)N1c2c(C)cc(C)cc2C(=C2SC(C(=O)OC)=C(C(=O)OC)S2)C(=S)C1(C)C
48	Cc1nc2c3c(cccc3n1)C(=O)c1ccccc1-2

Assay by compound,43,44,45,46,47,48
GIV-Gai inh,x,104,98,107,103,91
HCMV NEC inh,77*,-14,-18,-23,x,-96

49	Nc1cnc2cccc3c2c1-c1ccccc1C3=O
50	Cc1ccc(OCc2nc3c4c(-c5ccccc5)c(-c5ccccc5)oc4ncn3n2)cc1
51	COC(=O)c1sc2ccc(NC(=O)NCc3cccc(OC)c3)cc2c1OC
52	Cn1cccc1/C=C1\CCc2ccccc2C1=O

Assay by compound,49,50,51,52
GIV-Gai inh,-74*,112,96,144
HCMV NEC inh,-60,x,x,x
